{"source": "patent US20050048646A1", "about": "“Method for inducing cytotoxic T lymphocyte” (MEDINET Co., Ltd., priority 2003, published 2005)", "system": "HLA-A2 (HLA-A*0201) antigen positive T cells", "test": "Induction of EBV antigen-specific CD8-positive CTLs by co-culture, quantified with EBV tetramer by flow cytometry", "format": "cell-based, human", "conditions": "CD80-expressing cell line, IL-2 500 U/ml on third day vs no IL-2", "experimental": "The CD80-expressing cells of the MDA-MB/CD80G418 were co-cultured with lymphocytes and an Epstein-Barr virus (in the following, abbreviated as EBV) antigenic peptide, which was cancer antigenic peptide, thus confirming an induction of CTLs specific for the cancer antigen. For the above-noted EBV antigenic peptide, a peptide having the following amino acid sequence was used.\nThe condition of culturing these cells was as follows. • Temperature: 37° C. (5% CO2) • Used container: Falcon 24-well plate • Apparatus: CO2 incubator • Medium: AIM-V medium containing FCS or AB serum, or RPMI 1640 medium […]\nAfter culturing, the ratio of the CD8-positive antigen-specific CTLs in the T cells was measured using the EBV antigen-specific tetramer (T-Select MHC Tetramer: manufactured by Medical & Biological Laboratories Co., Ltd.) (measurement after the first stimulation). […] After 6 to 8 days of culturing, the ratio of the CD8-positive antigen-specific CTLs in the T cells was measured similarly using the peptide-specific tetramer (measurement after the second stimulation).\nThe amounts of inducing the CD8-positive CTLs specific for the EBV antigen after the first stimulation and the second stimulation were analyzed using the tetramer by the following procedure. […]\nThe proliferation ratio of CD8-positive EBV-specific CTLs was measured similarly to Example 2 except the following. […]", "data": [{"substance": "IL-2: cytokine added at 500 U/ml on the third day of culture", "values": [{"measurement": "effect of adding IL-2 on specific CTL induction efficiency", "value": "improved specific CTL induction efficiency"}]}]}
